Legend:
[1] = biological target: Staphylococcus epidermidis RNase J1 (full-length, amino acids 1-560) (Staphylococcus epidermidis) (UniProt Q5HQ80); test: SEC-MALS; miniDAWN TREOS; same Superdex200 column and buffer as the SEC (50 mM Tris-HCl pH 8.0, 250 mM NaCl, 10% glycerol, 4 mM β-ME, 0.5 mM TCEP, 5 mM MgCl2)
[2] = biological target: Staphylococcus epidermidis RNase J1 (full-length, amino acids 1-560) (Staphylococcus epidermidis) (UniProt Q5HQ80); test: SEC; analytical Superdex200; 250 μg of each freshly purified enzyme injected separately; 50 mM Tris-HCl pH 8.0, 250 mM NaCl, 10% glycerol, 4 mM β-ME, 0.5 mM TCEP, 5 mM MgCl2

stoichiometry N [1]: 2 | stoichiometry N [2]: 2
Substance: Staphylococcus epidermidis RNase J1 (full-length, amino acids 1-560) (from UniProt Q5HQ80 1-560) (enzyme)

— PMC7864078
